Test results published in US8158647B2, “Substituted pyrrolopyridines and pyrazolopyridines as kinase modulators” (SGX Pharmaceuticals, Inc., priority 2007, dated 2012).

The chains behind the UniProt entries cited, without tags or fusion partners. Where a name states a change or a piece, a line headed by the entry shows the natural chain unless it says otherwise. Residues count along the entry.
UniProt P00520, 242-493 T315I limits assumed: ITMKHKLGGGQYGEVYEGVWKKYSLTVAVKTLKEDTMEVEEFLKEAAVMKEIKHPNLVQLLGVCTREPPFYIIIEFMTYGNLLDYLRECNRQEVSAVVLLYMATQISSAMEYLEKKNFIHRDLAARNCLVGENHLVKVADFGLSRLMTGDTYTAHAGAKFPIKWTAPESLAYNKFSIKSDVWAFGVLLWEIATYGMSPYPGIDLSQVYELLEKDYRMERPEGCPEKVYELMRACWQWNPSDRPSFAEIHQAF
UniProt P00519, whole entry: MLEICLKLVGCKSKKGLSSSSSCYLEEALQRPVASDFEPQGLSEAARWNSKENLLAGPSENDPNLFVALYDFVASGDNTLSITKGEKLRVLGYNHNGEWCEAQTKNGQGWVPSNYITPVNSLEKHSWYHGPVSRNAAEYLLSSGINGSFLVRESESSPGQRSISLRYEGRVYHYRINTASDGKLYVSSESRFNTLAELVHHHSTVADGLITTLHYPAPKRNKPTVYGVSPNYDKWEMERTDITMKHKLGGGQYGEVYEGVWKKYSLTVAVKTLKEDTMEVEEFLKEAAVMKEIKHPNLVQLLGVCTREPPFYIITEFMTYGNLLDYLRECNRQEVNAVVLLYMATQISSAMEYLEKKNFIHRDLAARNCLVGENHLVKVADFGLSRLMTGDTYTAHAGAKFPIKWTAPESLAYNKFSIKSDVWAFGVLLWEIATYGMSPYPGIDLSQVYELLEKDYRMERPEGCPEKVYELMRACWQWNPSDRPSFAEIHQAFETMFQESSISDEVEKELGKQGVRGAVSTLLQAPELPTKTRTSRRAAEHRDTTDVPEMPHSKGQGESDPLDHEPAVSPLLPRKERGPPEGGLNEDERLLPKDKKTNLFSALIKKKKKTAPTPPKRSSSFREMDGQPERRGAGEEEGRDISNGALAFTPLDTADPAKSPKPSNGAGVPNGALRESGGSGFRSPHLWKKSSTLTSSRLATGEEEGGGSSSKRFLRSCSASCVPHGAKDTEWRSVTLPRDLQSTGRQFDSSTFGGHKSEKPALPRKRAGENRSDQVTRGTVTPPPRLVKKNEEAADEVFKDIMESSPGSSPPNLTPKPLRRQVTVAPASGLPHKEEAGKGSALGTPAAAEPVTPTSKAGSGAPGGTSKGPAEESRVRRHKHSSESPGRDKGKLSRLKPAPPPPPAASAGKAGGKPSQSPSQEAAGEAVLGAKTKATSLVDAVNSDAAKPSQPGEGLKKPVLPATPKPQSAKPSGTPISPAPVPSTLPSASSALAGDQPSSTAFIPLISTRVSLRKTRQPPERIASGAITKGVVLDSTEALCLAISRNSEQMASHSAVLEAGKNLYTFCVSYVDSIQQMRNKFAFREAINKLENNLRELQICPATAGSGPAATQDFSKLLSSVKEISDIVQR
UniProt P00519, whole entry T315I: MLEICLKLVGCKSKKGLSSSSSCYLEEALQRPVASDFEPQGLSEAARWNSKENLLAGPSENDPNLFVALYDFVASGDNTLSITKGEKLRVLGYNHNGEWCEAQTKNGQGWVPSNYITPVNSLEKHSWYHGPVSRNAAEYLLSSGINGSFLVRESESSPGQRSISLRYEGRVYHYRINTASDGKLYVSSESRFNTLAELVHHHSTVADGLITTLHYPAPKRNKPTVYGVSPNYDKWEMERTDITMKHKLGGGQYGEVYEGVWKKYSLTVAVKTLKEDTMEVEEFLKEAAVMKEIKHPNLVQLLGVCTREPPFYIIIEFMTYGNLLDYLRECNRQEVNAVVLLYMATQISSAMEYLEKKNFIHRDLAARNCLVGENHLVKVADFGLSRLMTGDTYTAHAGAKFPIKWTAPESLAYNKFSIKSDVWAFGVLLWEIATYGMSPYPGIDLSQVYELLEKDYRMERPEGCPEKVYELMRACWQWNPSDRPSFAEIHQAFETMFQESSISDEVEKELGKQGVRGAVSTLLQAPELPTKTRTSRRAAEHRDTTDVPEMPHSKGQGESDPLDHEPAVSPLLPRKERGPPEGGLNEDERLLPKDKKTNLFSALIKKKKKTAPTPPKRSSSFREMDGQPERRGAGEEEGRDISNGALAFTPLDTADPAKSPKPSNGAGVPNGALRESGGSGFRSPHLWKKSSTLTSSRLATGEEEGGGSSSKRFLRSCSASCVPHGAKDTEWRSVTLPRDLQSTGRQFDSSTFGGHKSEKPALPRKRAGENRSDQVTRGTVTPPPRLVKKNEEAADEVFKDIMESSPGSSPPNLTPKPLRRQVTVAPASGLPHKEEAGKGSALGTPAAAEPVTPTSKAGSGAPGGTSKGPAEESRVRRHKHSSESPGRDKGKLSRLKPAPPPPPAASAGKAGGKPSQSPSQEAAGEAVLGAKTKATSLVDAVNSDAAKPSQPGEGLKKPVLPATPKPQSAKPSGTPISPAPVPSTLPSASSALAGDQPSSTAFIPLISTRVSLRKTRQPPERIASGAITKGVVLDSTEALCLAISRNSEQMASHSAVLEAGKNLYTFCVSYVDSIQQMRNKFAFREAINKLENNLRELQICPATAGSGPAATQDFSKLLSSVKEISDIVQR

Experiments:
[1] = molecular target: purified and unphosphorylated T315I Abl kinase domain (ABL_T315I_0P) (Mus musculus, UniProt P00520, T315I); test: c-Abl T315I (unphosphorylated kinase domain) pyruvate kinase/lactate dehydrogenase coupled enzyme assay; conditions: read-out: ABL_T315I_0P (IC50), 10 μM ATP
Text: Although the first of these examples uses the kinase domain of a mutant form of Abl T315I (“Abl T315I KD”), the kinase assays may use various forms of mutant and wild type enzymes, including, for example, the entire protein, the kinase domain, or a portion thereof (e.g. Abl Y393F). The kinases used in the assays may also be of varying phosphorylation states. In the c-Abl example, a mutant kinase at a zero phosphorylation state was used.
c-Abl Pyruvate Kinase/Lactate Dehydrogenase Coupled Enzyme Assay
In the c-Abl Pyruvate Kinase (PK)/Lactate Dehydrogenase (LDH) Coupled Assay the protein kinase dependant phosphorylation of a substrate peptide was coupled to the oxidation of NADH. The oxidation of NADH to NAD+ was detected by monitoring a decrease in absorbance at 340 nm. […]
Activity was measured by following the time-dependent loss of NADH by absorbance spectroscopy at 340 nm. The linear portion of the resulting progress curve was then analyzed by linear regression to get the activity in absorbance units/time, reported as the slope of that best fit line (moles/unit time can be calculated from using molar extinction coefficient for NADH at 340 nm, 6250M^−1 cm^−1).
Screening data was evaluated using the equation: Z′=1-[3*(σ++σ−)/|μ+−μ−|] […]

[2] = molecular target: ABL P210WT BAF3 cells (Homo sapiens, UniProt P00519); test: 96-well XTT cell survival assay, BaF3 ABL P210WT; conditions: read-out: CELL BIO ABL P210WT BAF3 XTT (IC50), ABL P210 WT, 72 hours
Procedure: (§1) MV4-11 and THP cells were maintained in Iscove's Modified Dulbecco's Medium supplemented with 10% fetal bovine serum (FBS) and penicillin/streptomycin, Ba/F3 cells were maintained in RPMI 1640 supplemented with 10% FBS, penicillin/streptomycin and 5 ng/ml recombinant mouse IL-3.
(§2) Compounds were tested in the following assays in duplicate.
(§3) 96-well XTT assay: Cells (e.g. BaF3 315I, M3511, or E255K cells) were grown in growth media containing various concentrations of compounds (duplicates) on a 96-well plate for 72 hours at 37° C. The starting cell number was 5000-8000 cells per well and volume was 120 μl. At the end of the 72-hour incubation, 40 μl of XTT labeling mixture (50:1 solution of sodium 3′-[1-(phenylamino-carbonyl)-3,4-tetrazolium]-bis(4-methoxy-6-nitro) benzene sulfonic acid hydrate and Electron-coupling reagent: PMS (N-methyl dibenzopyrazine methyl sulfate) were added to each well of the plate. After an additional 2-6 hours of incubation at 37° C., the absorbance reading at 405 nm with background correction at 650 nm was measured with a spectrophotometer.

[3] = molecular target: ABL T315I BAF3 cells (Homo sapiens, UniProt P00519, T315I, cells depend on it); test: 96-well XTT cell survival assay, BaF3 ABL T315I; conditions: read-out: CELL BIO ABL T315I BAF3 XTT (IC50), 72 hours
Procedure: as §1, §2, §3

CN(C)C(=O)C(O)c1cncc(-c2cnc3[nH]cc4c3c2OCCc2ccccc2-4)c1 (stereo not drawn)
IC50 [1]: 10 to 100 nM | GI50 [2]: > 1000 nM | GI50 [3]: > 1000 nM
